In this test the target is cloned human serotonin 5-HT2C receptor (Homo sapiens, UniProt P28335). Description: radioligand binding.

The chains behind the UniProt entries cited, without tags or fusion partners. Residues count along the entry.
UniProt P28335, 33-458: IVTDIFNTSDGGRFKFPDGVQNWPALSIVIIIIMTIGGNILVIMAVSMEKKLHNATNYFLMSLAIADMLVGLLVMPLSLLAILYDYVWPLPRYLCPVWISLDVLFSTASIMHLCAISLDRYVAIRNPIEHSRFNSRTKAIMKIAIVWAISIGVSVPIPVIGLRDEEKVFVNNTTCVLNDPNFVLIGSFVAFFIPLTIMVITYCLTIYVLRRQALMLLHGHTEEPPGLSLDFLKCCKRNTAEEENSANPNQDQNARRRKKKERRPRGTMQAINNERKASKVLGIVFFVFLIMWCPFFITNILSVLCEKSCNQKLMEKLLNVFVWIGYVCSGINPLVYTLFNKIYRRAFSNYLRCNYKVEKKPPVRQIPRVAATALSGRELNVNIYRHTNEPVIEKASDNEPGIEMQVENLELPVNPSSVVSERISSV

Structures are written as SMILES.

For the compound `CN1C[C@@H](NS(=O)(=O)N(C)C)C[C@@H]2c3cccc4c3c(cn4C)C[C@H]21` [[^3H]mesulergine, N′-(1-methyl-6-methylergolin-8alpha-yl)-N,N-dimethylsulfamide, reference compound], the Kd (as a rule, a measure of binding affinity in units of concentration) is 1.8 ± 0.726 nM.

(Values after paper PMC2946983 (Bioorganic & medicinal chemistry, 2010).)
